The target in the assay is D(4) dopamine receptor (Homo sapiens, UniProt P21917). Nature of the assay: Binding affinity towards human Dopamine receptor D4 by [3H]spiperone displacement.

Chains of the proteins cited; added tags and fusions are not shown.
UniProt P21917, whole entry: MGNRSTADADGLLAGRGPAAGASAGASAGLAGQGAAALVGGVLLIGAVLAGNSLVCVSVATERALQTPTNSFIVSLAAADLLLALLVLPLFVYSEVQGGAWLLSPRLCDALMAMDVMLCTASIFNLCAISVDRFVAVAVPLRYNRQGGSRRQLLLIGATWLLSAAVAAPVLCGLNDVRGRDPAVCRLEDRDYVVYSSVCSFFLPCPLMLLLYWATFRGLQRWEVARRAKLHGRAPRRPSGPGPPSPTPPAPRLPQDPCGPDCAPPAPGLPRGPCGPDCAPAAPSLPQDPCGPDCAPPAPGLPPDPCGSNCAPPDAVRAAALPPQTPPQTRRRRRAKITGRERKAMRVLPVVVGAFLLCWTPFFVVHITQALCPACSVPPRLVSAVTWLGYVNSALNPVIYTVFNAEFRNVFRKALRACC

This is an account of results in ChEMBL document CHEMBL1132075, “Enantio- and diastereocontrolled dopamine D1, D2, D3 and D4 receptor binding of N-(3-pyrrolidinylmethyl)benzamides synthesized from aspartic acid” (Bioorg Med Chem Lett, 1999).

With `CCN1CCC[C@H]1CNC(=O)c1cc(S(N)(=O)=O)ccc1OC` [LEVOSULPIRIDE], the Ki was 2.1 µM.

Usually Ki stands for the equilibrium dissociation constant of an inhibitor or competing ligand from its target. Low values mean tighter binding, high ones weaker binding.
